The test system of this experiment is wtFGFR2 Hec1B cells. The experiment in a line: Cell growth assay (72 h). As to conditions: Homo sapiens, HEC-1B, read-out: Cell growth GI50 (nM).

The GI50 is the concentration at which growth is held to half of that of the control.

For `Cc1ccc(C(=O)Nc2ccc(CN3CCN(C)CC3)c(C(F)(F)F)c2)cc1C#Cc1cnc2cccnn12` [Compound 1, 3-(imidazo[1,2-b]pyridazin-3-ylethynyl)-4-methyl-N-(4-((4-methylpiperazin-1-yl)-methyl)-3-(trifluoromethyl)phenyl)benzamide], the GI50 worked out at 490 nM.

(Values after patent US20120316137A1, “Methods and Compositions for Treating Cancer” (priority 2009, published 2012).)
